Values of other authors in patent US20080306035A1, “Methods and Compositions for Treating Female Infertility Using Clomiphene” (priority 2005, published 2008).

Details: following a single dose

In the case of cis-clomiphene, the “duration of residual blood levels” value is listed as “one”.
